# Experimental data reported in US12036229B2, “Use of phosphorylated heptose compounds” (NATIONAL RESEARCH COUNCIL OF CANADA, priority 2017, dated 2024).
# Key:
# [1] = tested on: CT26 cells (colon carcinoma from BALB/c mice); test: CT26 tumour model in BALB/c mice; type: in vivo; details: intraperitoneal; HMP 200 μg per day D10, D11, D12; LPS 1x at 3 mg/kg; 11 day period, vs PBS; FIG. 14c
# serum KC = test: In vivo administration, serum KC levels; details: compared to vehicle PBS and control JS9 Man-1β-P
# [2] = tested on: Human macrophage cells (THP-1); test: Stimulation of human macrophages (THP-1), IL-8 by ELISA; details: 30 μM or 150 μM, THP-1, 20 minutes in permeabilization buffer, then 6 hours; FIG. 11
# [3] = tested on: NF-κB-driven luciferase reporter; test: NF-κB-driven luciferase reporter assay in HEK 293T cells; details: 20 μg/mL, 20 minutes in permeabilization buffer (5 μg/mL digitonin), then 3.5 hours in complete medium; FIG. 7
# [4] = tested on: Human colonic epithelial cells (HCT 116); test: Stimulation of human colonic epithelial cells (HCT 116), IL-8 by ELISA; details: 10 μg/mL, HCT 116 WT or TIFA KO, 20 minutes in permeabilization buffer, then 6 hours; FIG. 8
substance,measurement,setting,value
D-glycero-D-manno-heptopyranose 1β-phosphate,change in tumour volume relative to day 10 (rate of tumour growth),[1],significantly reduced the rate of tumour growth
same,serum KC levels,"serum KC; 500 μg/mouse intraperitoneally, 3 h post-injection, FIG. 12",induced serum KC levels
same,serum KC levels,"serum KC; 500 μg/mouse intravenously, 1 h post-injection, FIG. 13",induced serum KC levels
same,cytokine expression (IL-8 levels in culture supernatants),[2],can drive cytokine expression in vitro
same,NF-κB stimulation (luciferase assay),[3],can immunomodulate via NF-κB stimulation in vitro
same,cytokine expression (IL-8 levels in culture supernatants),[4],can drive cytokine expression in vitro
